# According to ChEMBL document CHEMBL6134891, “Thienopyrimidinone Derivatives as a GluN2B/C/D Biased, Positive Allosteric Modulator of the N-Methyl-d-Aspartate Receptor” (J Med Chem, 2025):
# Protein sequences, listed by entry. Tags and fused reporters are not part of them. Lines headed by an entry give the natural chain unless they say otherwise; changes in a name come on top.
# UniProt Q00960, whole entry, looked up: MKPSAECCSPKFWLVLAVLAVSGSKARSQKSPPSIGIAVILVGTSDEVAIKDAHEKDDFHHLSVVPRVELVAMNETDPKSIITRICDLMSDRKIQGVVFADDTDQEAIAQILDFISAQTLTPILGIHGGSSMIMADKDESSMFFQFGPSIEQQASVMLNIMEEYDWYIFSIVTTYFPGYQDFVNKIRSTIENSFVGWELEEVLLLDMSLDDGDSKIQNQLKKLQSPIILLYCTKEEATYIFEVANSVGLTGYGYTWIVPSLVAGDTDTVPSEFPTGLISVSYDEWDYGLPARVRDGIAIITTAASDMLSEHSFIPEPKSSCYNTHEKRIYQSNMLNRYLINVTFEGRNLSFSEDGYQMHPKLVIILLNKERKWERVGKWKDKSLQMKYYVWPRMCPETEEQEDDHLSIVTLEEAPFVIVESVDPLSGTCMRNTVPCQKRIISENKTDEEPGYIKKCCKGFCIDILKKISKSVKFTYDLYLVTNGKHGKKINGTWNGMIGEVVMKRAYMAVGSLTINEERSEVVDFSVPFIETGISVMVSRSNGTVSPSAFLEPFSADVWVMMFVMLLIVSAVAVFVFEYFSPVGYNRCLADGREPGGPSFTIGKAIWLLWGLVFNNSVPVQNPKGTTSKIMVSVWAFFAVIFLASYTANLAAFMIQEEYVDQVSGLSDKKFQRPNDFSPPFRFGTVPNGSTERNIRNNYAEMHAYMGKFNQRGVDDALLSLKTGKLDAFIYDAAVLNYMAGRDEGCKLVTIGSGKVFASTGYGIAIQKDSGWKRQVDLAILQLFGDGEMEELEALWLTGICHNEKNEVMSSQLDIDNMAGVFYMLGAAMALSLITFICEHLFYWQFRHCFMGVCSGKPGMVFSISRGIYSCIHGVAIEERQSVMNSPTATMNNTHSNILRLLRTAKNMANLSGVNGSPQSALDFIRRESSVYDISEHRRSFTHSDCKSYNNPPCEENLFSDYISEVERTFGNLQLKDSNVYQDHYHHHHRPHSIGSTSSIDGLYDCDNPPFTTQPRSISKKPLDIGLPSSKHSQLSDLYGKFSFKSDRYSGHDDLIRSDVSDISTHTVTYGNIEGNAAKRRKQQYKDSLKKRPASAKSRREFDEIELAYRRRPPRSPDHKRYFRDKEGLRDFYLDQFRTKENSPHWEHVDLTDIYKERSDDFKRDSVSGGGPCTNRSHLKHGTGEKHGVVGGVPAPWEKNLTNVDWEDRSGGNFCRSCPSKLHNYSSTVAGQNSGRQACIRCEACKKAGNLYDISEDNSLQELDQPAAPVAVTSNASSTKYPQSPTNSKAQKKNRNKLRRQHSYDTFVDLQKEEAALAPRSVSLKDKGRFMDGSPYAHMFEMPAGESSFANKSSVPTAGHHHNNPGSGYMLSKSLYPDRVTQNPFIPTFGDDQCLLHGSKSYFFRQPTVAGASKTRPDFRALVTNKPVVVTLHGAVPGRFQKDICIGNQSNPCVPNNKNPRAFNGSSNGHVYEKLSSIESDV
# UniProt Q16099: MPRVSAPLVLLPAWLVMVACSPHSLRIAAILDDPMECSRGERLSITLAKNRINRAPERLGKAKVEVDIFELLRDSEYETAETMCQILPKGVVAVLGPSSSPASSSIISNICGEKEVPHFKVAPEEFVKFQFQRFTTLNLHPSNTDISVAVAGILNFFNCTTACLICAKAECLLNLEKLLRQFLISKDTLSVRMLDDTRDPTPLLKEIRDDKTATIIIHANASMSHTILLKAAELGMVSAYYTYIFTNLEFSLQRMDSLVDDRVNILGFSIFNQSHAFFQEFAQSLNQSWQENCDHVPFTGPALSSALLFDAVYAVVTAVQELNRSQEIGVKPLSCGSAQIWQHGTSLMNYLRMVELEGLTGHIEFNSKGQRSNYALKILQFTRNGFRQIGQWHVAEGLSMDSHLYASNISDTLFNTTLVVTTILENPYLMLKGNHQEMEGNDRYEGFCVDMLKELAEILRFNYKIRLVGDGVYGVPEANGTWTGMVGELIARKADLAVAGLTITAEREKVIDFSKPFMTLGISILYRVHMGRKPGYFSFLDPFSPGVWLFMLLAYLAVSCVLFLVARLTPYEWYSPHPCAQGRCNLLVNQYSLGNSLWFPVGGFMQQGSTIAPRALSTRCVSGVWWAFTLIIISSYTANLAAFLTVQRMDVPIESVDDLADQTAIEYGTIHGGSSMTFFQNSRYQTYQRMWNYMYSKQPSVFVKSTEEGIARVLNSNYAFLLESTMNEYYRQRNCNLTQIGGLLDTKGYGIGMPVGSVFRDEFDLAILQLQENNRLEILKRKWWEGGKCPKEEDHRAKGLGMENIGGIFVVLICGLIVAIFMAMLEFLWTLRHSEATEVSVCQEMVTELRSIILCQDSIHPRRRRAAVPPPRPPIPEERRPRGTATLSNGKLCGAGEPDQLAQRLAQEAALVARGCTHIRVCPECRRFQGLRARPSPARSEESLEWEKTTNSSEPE
# UniProt Q00961: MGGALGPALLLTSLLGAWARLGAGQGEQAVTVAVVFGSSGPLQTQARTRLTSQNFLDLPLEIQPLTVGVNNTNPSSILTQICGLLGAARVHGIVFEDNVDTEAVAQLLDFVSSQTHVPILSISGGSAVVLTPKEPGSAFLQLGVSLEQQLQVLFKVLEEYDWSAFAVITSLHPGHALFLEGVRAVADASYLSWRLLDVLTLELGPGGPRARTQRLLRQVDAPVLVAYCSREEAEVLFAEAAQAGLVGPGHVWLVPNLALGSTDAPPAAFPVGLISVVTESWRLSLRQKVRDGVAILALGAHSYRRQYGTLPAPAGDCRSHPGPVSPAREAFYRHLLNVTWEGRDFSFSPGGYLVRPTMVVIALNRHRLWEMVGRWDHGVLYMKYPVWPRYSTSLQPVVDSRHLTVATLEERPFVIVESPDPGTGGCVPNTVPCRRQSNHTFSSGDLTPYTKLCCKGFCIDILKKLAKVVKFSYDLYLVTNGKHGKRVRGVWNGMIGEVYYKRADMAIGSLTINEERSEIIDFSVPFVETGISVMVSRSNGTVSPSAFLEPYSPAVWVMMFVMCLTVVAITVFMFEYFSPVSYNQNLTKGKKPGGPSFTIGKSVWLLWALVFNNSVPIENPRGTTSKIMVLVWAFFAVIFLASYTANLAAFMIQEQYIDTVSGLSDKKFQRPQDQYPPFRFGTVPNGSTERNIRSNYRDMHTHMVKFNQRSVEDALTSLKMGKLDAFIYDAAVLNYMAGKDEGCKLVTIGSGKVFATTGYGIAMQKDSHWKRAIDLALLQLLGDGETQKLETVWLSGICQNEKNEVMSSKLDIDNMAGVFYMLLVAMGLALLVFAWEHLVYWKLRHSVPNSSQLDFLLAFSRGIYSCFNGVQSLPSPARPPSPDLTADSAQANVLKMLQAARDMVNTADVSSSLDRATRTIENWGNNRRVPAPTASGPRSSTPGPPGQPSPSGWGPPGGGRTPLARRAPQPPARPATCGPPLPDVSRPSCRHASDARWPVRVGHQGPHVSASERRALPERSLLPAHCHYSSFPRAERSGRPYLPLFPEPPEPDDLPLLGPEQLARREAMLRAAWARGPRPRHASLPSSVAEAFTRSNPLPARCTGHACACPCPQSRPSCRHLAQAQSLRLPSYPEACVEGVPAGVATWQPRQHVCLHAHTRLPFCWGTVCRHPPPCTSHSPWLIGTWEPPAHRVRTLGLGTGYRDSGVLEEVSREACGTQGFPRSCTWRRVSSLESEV
# UniProt P51575: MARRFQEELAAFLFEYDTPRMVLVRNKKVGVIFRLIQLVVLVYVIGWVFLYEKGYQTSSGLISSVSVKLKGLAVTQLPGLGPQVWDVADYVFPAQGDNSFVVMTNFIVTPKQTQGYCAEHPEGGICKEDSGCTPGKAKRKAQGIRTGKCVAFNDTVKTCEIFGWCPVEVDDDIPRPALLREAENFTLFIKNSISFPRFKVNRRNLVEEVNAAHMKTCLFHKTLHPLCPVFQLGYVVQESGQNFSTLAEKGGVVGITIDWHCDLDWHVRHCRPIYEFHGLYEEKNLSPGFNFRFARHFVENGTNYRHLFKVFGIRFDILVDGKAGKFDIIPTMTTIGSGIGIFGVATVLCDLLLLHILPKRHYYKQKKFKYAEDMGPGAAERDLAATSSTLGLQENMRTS
# UniProt Q99571: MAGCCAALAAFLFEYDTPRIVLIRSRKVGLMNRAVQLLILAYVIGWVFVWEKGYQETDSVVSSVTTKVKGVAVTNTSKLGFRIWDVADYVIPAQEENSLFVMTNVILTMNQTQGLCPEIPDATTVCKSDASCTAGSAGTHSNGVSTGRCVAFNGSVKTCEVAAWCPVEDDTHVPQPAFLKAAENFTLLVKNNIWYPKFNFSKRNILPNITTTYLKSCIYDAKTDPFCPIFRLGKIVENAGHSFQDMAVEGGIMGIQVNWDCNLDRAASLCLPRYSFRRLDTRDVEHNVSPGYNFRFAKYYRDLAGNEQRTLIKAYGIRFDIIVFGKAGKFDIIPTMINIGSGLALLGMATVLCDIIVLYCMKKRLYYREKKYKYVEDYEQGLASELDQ
# UniProt Q9UBL9: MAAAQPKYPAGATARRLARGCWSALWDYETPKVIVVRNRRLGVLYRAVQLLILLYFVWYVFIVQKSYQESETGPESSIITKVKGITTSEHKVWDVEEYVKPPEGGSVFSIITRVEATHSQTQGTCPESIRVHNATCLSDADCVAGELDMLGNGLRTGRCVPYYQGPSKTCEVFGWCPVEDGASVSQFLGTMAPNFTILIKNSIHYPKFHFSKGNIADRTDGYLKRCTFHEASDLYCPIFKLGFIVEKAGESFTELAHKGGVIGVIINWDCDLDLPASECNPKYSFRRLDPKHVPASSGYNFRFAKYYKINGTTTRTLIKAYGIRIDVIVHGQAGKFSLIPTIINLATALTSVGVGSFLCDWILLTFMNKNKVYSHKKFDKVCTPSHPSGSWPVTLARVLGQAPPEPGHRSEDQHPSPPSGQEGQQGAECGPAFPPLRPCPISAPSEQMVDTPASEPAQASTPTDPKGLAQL
# UniProt O15547: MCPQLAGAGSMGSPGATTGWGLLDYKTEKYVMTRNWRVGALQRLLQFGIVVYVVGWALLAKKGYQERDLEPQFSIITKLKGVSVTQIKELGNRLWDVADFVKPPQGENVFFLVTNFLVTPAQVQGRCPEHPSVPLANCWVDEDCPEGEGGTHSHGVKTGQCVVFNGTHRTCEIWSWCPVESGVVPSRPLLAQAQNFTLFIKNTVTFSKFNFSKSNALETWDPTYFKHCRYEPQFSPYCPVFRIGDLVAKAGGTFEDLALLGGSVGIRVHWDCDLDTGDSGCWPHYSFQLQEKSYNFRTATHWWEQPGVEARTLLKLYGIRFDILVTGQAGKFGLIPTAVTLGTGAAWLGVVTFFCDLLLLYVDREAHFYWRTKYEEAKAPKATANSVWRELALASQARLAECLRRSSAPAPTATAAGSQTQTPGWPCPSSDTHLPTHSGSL
# UniProt P56373: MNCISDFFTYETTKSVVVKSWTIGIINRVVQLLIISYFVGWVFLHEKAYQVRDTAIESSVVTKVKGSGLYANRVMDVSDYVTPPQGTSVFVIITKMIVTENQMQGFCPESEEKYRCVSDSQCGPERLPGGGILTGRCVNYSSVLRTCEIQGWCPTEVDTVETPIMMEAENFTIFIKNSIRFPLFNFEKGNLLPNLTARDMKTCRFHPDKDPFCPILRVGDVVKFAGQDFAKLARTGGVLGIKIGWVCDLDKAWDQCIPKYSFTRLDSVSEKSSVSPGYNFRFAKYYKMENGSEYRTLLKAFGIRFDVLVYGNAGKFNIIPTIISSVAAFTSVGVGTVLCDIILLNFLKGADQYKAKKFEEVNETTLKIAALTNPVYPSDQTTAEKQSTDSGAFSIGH
# UniProt Q99572: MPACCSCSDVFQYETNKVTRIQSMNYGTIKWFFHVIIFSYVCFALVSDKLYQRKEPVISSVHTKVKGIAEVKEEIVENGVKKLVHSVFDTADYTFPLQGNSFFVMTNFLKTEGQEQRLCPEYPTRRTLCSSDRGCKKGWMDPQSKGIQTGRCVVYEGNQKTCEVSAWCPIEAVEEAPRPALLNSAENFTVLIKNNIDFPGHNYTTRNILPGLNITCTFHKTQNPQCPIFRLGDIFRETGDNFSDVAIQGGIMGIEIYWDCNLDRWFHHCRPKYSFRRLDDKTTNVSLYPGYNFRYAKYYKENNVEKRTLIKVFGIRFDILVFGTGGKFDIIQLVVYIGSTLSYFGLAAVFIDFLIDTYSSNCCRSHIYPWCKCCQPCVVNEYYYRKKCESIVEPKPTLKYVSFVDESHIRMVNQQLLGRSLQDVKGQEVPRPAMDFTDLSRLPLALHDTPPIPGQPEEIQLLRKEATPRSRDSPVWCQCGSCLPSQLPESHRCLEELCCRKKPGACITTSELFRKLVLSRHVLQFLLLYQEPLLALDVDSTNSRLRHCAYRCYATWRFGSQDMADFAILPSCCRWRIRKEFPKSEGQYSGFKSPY
# Legend:
# [1] = AUClast in brain of Sprague-Dawley rat at 1 mg/kg, iv; format: ADME, organism-based; settings: in vivo
# [2] = biological target: Glutamate receptor ionotropic, NMDA 2B (Rattus norvegicus) (UniProt Q00960); format: cell-based; settings: Oocyte, filed as positive allosteric modulator
# Mus musculus [3] = experiment: Inhibition of avoidance behaviour in C57Bl/6 mouse assessed as time taken to reach center at 5 mg/kg, ip treated 1 hr prior to testing and measured for 10 mins by open-field test (reference value: 5.44 +/- 0.911 %); format: functional; set-up: scale not given: the % may be the effect or the level left; settings: time 70 min, 1.167 h
# Mus musculus [4] = experiment: Inhibition of avoidance behaviour in C57Bl/6 mouse assessed as number of entries to center at 5 mg/kg, ip treated 1 hr prior to testing and measured for 10 mins by open-field test (reference value: 20.1 +/- 4.41); format: functional; settings: time 70 min, 1.167 h
# Mus musculus [5] = experiment: Inhibition of avoidance behaviour in C57Bl/6 mouse assessed as distance traveled to center at 10 mg/kg, ip treated 1 hr prior to testing and measured for 10 mins by open-field test (reference value: 22.9 +/- 2.89 %); format: functional; set-up: scale not given: the % may be the effect or the level left; settings: time 70 min, 1.167 h
# [6] = AUClast in brain of Sprague-Dawley rat at 10 mg/kg, po; format: ADME, organism-based; settings: in vivo
# Mus musculus [7] = experiment: Inhibition of avoidance behaviour in C57Bl/6 mouse assessed as number of entries at 10 mg/kg, ip treated 1 hr prior to testing and measured for 10 mins by light/dark box test (reference value: 14.3 +/- 2.20); format: functional; settings: time 70 min, 1.167 h
# Mus musculus [8] = experiment: Inhibition of avoidance behaviour in C57Bl/6 mouse assessed as time spent in light chamber at 5 mg/kg, ip treated 1 hr prior to testing and measured for 10 mins by light/dark box test (reference value: 15.2 +/- 2.91 %); format: functional; set-up: scale not given: the % may be the effect or the level left; settings: time 70 min, 1.167 h
# Mus musculus [9] = experiment: Inhibition of avoidance behaviour in C57Bl/6 mouse assessed as time spent in light chamber at 10 mg/kg, ip treated 1 hr prior to testing and measured for 10 mins by light/dark box test (reference value: 15.2 +/- 2.91 %); format: functional; set-up: scale not given: the % may be the effect or the level left; settings: time 70 min, 1.167 h
# [10] = biological target: Glutamate receptor ionotropic kainate (Homo sapiens) (UniProt P39086+Q16478+Q16099+Q13002+Q13003); experiment: Inhibition of kainate receptor (unknown origin) expressed in Xenopus oocytes at 5 uM by radioligand binding assay; format: cell-based; settings: Oocyte
# [11] = AUClast in brain of C57BL/6 mouse at 10 mg/kg, ip; format: ADME, organism-based; settings: in vivo
# Mus musculus [12] = experiment: Inhibition of avoidance behaviour in C57Bl/6 mouse assessed as time taken to reach center at 10 mg/kg, ip treated 1 hr prior to testing and measured for 10 mins by open-field test (reference value: 5.44 +/- 0.911 %); format: functional; set-up: scale not given: the % may be the effect or the level left; settings: time 70 min, 1.167 h
# [13] = AUClast in plasma of Sprague-Dawley rat at 10 mg/kg, po; format: ADME, organism-based; settings: in vivo
# Mus musculus [14] = experiment: Inhibition of avoidance behaviour in C57Bl/6 mouse assessed as total distance traveled at 5 mg/kg, ip treated 1 hr prior to testing and measured for 10 mins by light/dark box test (reference value: 1500 +/- 111 cm); format: functional; settings: time 70 min, 1.167 h
# [15] = AUClast in plasma of Sprague-Dawley rat at 1 mg/kg, iv; format: ADME, organism-based; settings: in vivo
# Mus musculus [16] = experiment: Inhibition of avoidance behaviour in C57Bl/6 mouse assessed as distance traveled at 5 mg/kg, ip treated 1 hr prior to testing and measured for 10 mins by light/dark box test (reference value: 40.3 +/- 3.47 %); format: functional; set-up: scale not given: the % may be the effect or the level left; settings: time 70 min, 1.167 h
# [17] = biological target: Glutamate receptor ionotropic, NMDA 2C (Rattus norvegicus) (UniProt Q00961); format: cell-based; settings: Oocyte, filed as positive allosteric modulator
# [18] = biological target: P2X receptor (Homo sapiens) (UniProt P51575+Q99571+Q9UBL9+O15547+P56373+Q99572+Q93086); experiment: Inhibition of P2x receptor (unknown origin) expressed in Xenopus oocytes at 5 uM by radioligand binding assay; format: cell-based; settings: Oocyte
# Mus musculus [19] = experiment: Inhibition of avoidance behaviour in C57Bl/6 mouse assessed as total distance traveled at 10 mg/kg, ip treated 1 hr prior to testing and measured for 10 mins by light/dark box test (reference value: 1500 +/- 111 cm); format: functional; settings: time 70 min, 1.167 h
# [20] = AUClast in brain of Sprague-Dawley rat at 10 mg/kg, ip; format: ADME, organism-based; settings: in vivo
# [21] = AUClast in plasma of Sprague-Dawley rat at 10 mg/kg, ip; format: ADME, organism-based; settings: in vivo
# Mus musculus [22] = experiment: Inhibition of avoidance behaviour in C57Bl/6 mouse assessed as number of entries to center at 10 mg/kg, ip treated 1 hr prior to testing and measured for 10 mins by open-field test (reference value: 20.1 +/- 4.41); format: functional; settings: time 70 min, 1.167 h
# Mus musculus [23] = experiment: Inhibition of avoidance behaviour in C57Bl/6 mouse assessed as distance traveled at 10 mg/kg, ip treated 1 hr prior to testing and measured for 10 mins by light/dark box test (reference value: 40.3 +/- 3.47 %); format: functional; set-up: scale not given: the % may be the effect or the level left; settings: time 70 min, 1.167 h
# Mus musculus [24] = experiment: Inhibition of avoidance behaviour in C57Bl/6 mouse assessed as number of entries at 5 mg/kg, ip treated 1 hr prior to testing and measured for 10 mins by light/dark box test (reference value: 14.3 +/- 2.20); format: functional; settings: time 70 min, 1.167 h
# [25] = AUClast in plasma of C57BL/6 mouse at 10 mg/kg, ip; format: ADME, organism-based; settings: in vivo
# [26] = biological target: Glutamate receptor ionotropic, NMDA 2D (Rattus norvegicus) (UniProt Q62645); format: cell-based; settings: Oocyte, filed as positive allosteric modulator
# Mus musculus [27] = experiment: Inhibition of avoidance behaviour in C57Bl/6 mouse assessed as distance traveled to center at 5 mg/kg, ip treated 1 hr prior to testing and measured for 10 mins by open-field test (reference value: 22.9 +/- 2.89 %); format: functional; set-up: scale not given: the % may be the effect or the level left; settings: time 70 min, 1.167 h
# Mus musculus [28] = experiment: Inhibition of avoidance behaviour in C57Bl/6 mouse assessed as time spent in rearing at 5 mg/kg, ip treated 1 hr prior to testing and measured for 10 mins by open-field test (reference value: 20.1 +/- 4.41 sec); format: functional; settings: time 70 min, 1.167 h
# Mus musculus [29] = experiment: Inhibition of avoidance behaviour in C57Bl/6 mouse assessed as time spent in rearing at 10 mg/kg, ip treated 1 hr prior to testing and measured for 10 mins by open-field test (reference value: 20.1 +/- 4.41 sec); format: functional; settings: time 70 min, 1.167 h
compound,measurement,setting,value
C#Cc1sc2ncn(CC(=O)N3CC(C)(F)C3)c(=O)c2c1-c1ccc(F)c(Br)c1,AUClast,[1],113 ng·h/g
same,Emax,[2],395%
same,Activity,Mus musculus [3],5.99%
same,Activity,Mus musculus [4],23.8
same,Activity,Mus musculus [5],30.2%
same,AUClast,[6],754 ng·h/g
same,Activity,Mus musculus [7],23.1
same,Activity,Mus musculus [8],13.5%
same,Activity,Mus musculus [9],35.3%
same,inhibition,[10],Not active; Minimal Effect Observed
same,AUClast,[11],1000 ng·h/g
same,Activity,Mus musculus [12],8.18%
same,AUClast,[13],1217 ng·h/g
same,Activity,Mus musculus [14],1450 cm
same,AUClast,[15],210 ng·h/g
same,Activity,Mus musculus [16],30.3%
same,Emax,[17],500%
same,inhibition,[18],Not active; Minimal Effect Observed
same,Activity,Mus musculus [19],1870 cm
same,AUClast,[20],1740 ng·h/g
same,AUClast,[21],3352 ng·h/g
same,Activity,Mus musculus [22],26.5
same,Activity,Mus musculus [23],61.7%
same,Activity,Mus musculus [24],16
same,AUClast,[25],3153 ng·h/g
same,Emax,[26],834%
same,Activity,Mus musculus [27],20.8%
same,Time,Mus musculus [28],130 s
same,Time,Mus musculus [29],135 s
